# Test results as given in paper PMC7723054.
# Some of the results follow.
# T1: LIN28A (human?, UniProt Q9H9Z2 1-209)
# T1 sequence: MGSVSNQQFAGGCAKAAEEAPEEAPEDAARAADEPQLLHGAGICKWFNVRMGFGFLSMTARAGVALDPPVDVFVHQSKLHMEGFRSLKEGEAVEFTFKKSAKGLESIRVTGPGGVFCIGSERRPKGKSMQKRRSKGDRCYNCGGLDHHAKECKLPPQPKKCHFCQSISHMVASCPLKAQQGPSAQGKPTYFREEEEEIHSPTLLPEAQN
# T2: CIRBP (Homo sapiens, UniProt Q14011 1-172)
# T2 sequence: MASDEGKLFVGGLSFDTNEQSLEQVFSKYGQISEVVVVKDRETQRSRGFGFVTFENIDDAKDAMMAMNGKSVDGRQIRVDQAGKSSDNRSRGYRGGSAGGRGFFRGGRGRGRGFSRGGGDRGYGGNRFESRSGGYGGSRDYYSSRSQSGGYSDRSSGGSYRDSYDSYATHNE
# T3: DHX36 (Homo sapiens, UniProt Q9H2U1 1-1008)
# T3 sequence: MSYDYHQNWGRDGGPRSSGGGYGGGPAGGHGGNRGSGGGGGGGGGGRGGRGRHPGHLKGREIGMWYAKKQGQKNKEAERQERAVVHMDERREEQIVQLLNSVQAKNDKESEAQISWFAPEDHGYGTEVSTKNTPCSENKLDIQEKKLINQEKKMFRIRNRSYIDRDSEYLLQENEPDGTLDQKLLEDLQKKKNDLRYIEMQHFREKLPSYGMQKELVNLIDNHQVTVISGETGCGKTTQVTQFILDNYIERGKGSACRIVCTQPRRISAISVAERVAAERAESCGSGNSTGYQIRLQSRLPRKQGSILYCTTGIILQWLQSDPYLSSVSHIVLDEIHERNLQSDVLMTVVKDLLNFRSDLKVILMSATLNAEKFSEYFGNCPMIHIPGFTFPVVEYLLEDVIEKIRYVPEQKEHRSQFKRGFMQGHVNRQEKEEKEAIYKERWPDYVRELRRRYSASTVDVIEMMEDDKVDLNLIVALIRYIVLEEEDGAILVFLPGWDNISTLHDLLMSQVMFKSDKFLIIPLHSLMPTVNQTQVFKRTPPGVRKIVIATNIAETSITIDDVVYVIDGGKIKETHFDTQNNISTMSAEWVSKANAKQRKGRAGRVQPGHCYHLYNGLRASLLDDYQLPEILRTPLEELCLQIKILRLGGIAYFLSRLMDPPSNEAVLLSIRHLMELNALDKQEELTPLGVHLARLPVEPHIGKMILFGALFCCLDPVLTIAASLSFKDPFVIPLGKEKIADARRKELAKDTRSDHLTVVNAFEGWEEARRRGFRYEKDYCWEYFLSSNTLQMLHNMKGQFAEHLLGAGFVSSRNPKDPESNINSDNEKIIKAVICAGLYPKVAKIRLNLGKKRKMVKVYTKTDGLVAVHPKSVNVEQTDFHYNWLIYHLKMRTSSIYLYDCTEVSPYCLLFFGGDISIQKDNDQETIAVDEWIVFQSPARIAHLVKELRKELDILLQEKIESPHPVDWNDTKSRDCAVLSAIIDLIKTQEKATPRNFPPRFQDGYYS
# B1: hsa-mir-548ae-2 (structured_RNA)
# RNA: GGGAGCAACGGCAAGACCCACGUACUAGGGUGUACGAAGUUUCAGCUUUGUCAUUUAAAAGUAAUGGCAAAGCUGAAGCUUCGUGCAC
# B2: hsa-mir-576 (structured_RNA)
# RNA: GGGAAGGUAAACCCAGUCGUGAUCCCGUGGUGUACGAAGUUUCAGCUCUUUGGUAAUAAGGUUUGGCAAAGAGCUGAAGCUUCGUGCAC
# B3: hsa-mir-3658 (structured_RNA)
# RNA: GGGAAGGUUCGCCUGCUUGGUAGCUGAUGGUGUACGAAGUUUCAGCAGAUGAAAUGCCUUUGAUUUGCUGAAGCUUCGUGCAC
# B4: hsa-mir-6863 (structured_RNA)
# RNA: GGGACAUUAGGAAGGAACCGCUUGAAAUGGUGUACGAAGUUUCAGCUUAAUGAGGCCAUAGAGCUGAAGCUUCGUGCAC
# B5: hsa-mir-4777 (structured_RNA)
# RNA: GGGAACAGUCAGCGGACUCGGUAACCAAGGUGUACGAAGUUUCAGCAGAUAUAUAUAUACCUCAUAUGUAUAUGGUAUACGCUGAAGCUUCGUGCAC
# B6: hsa-mir-1290 (structured_RNA)
# RNA: GGGAACCUGUAGCUGCUACGGAUAGCGGGGUGUACGAAGUUUCAGCUUCAGAUUUUGGAACAUUUCGGAUUUUGGAGCUGAAGCUUCGUGCAC
# B7: hsa-mir-320b-1 (structured_RNA)
# RNA: GGGAACAGGACUGAACCUUCAAUACAGGGGUGUACGAAGUUUCAGCAAUCCCUCUCUUUCUAGUUCUUCCUAGAGUGAGGAAAAGCUGAAGCUUCGUGCAC
# B8: hsa-mir-875 (structured_RNA)
# RNA: GGGAACAGGGAACCUUAUACUAAGUUUGGGUGUACGAAGUUUCAGCCAGGUGUUCUUAAAAUCACCUGGCUGAAGCUUCGUGCAC
# B9: hsa-mir-4289 (structured_RNA)
# RNA: GGGACCAGACUGCGCGUGUAAAUCGAAUGGUGUACGAAGUUUCAGCAUCAGGCAGUUUCCUGGCUGAAGCUUCGUGCAC
# B10: hsa-mir-3936 (structured_RNA)
# RNA: GGGAAAUUCACACGCUGACGGCGAUUUAGGUGUACGAAGUUUCAGCAAAUCCGUGUUUGGACGCUUCUGGUAGCUGAAGCUUCGUGCAC
# B11: hsa-mir-1255b-1 (structured_RNA)
# RNA: GGGACGCUCUCGCCGAGGUAUAGAGUUUGGUGUACGAAGUUUCAGCGGUUUCUUAAAAUGGAAUCUGCUGAAGCUUCGUGCAC
# B12: hsa-mir-6822 (structured_RNA)
# RNA: GGGACAACAAGAGUGUAGCCCCAGAAACGGUGUACGAAGUUUCAGCGCUUCCGCUCUGCAGAGGCGCUGAAGCUUCGUGCAC
# B13: hsa-mir-3917 (structured_RNA)
# RNA: GGGAAUUAAUGCCGGUAUCCUCUAGCCGGGUGUACGAAGUUUCAGCUGGUCAGGCGGCUGCUGAAGCUUCGUGCAC
# B14: hsa-mir-378d-2 (structured_RNA)
# RNA: GGGAAGGUGUACGCAGCCAUCUUAGGAUGGUGUACGAAGUUUCAGCAAAACUUUCAUCCAAGUCAUUGCUGAAGCUUCGUGCAC
# B15: hsa-mir-5685 (structured_RNA)
# RNA: GGGAAUCGAGUUCUCCCGGUAAGACAUCGGUGUACGAAGUUUCAGCCGGGCCCCUCCCCUCAAUGGGCCCGGCUGAAGCUUCGUGCAC
# B16: hsa-mir-125b-1 (structured_RNA)
# RNA: GGGAAGGUCCUAGCGACGUAUUACCAAAGGUGUACGAAGUUUCAGCUUGUGAUGUUUACCGUUUAAAUCCACGGGCUGAAGCUUCGUGCAC
# B17: hsa-mir-548o-2 (structured_RNA)
# RNA: GGGAUAACAGCCCCAGCGAGUCACUCGUGGUGUACGAAGUUUCAGCUUUGCCAUUAAAAGUAAUGCGGCCAAGCUGAAGCUUCGUGCAC
# B18: hsa-mir-4288 (structured_RNA)
# RNA: GGGAAGCCAAUGAGGACUCUCAGAGCUAGGUGUACGAAGUUUCAGCCAGCACUGAGCAGGCAGUGUUGUGCUGAAGCUUCGUGCAC
# B19: hsa-mir-4260 (structured_RNA)
# RNA: GGGAACAAGUUGAGCGAGAUCCCGACAAGGUGUACGAAGUUUCAGCCCCACUUCCUGGAGCUGAAGCUUCGUGCAC
# B20: hsa-mir-4512 (structured_RNA)
# RNA: GGGAAGAUGCUCUCCGGGCGAACUUAGUGGUGUACGAAGUUUCAGCCUCGUCUCUACAAAAAAUUGAGACAGGGCUGAAGCUUCGUGCAC
# B21: hsa-mir-4294 (structured_RNA)
# RNA: GGGAACGUUCGAGACCCUCUCUUGUGCCGGUGUACGAAGUUUCAGCGGGCCAUGUCUGUGAGGGCCCAGCUGAAGCUUCGUGCAC
# B22: hsa-mir-767 (structured_RNA)
# RNA: GGGAAAUUGUCAAUCCGGGACCAUUCUGGGUGUACGAAGUUUCAGCCAUGCAGCAUGCUUGUCUGGCUGAAGCUUCGUGCAC
# B23: hsa-mir-4283-1_4283-2 (structured_RNA)
# RNA: GGGAACGUAAAAUUAGGGCCAGACGAAUGGUGUACGAAGUUUCAGCGUUUGCAAGGGGUGUUUCUGUCCAUGGUCAGGCGCUGAAGCUUCGUGCAC
# B24: hsa-mir-6813 (structured_RNA)
# RNA: GGGAACAAGGGUUACGUAUACAACGUUUGGUGUACGAAGUUUCAGCGGUUCUCAGUCAGAACCGCUGAAGCUUCGUGCAC
# B25: hsa-mir-596 (structured_RNA)
# RNA: GGGAAAACAGUAGCGAACCGGACCUGUCGGUGUACGAAGUUUCAGCCGGGAACCUGCCUCCCGGCUGAAGCUUCGUGCAC
# B26: hsa-mir-514a-1 (structured_RNA)
# RNA: GGGACAGUACCUGGAUGGGCUACAUUUGGGUGUACGAAGUUUCAGCCAAUCAUGUAUAAUUAAAUUUGAUUGGCUGAAGCUUCGUGCAC
# Legend:
# Experiment in all cases: FOREST: bead pull-down of RNA structure library v1, barcode microarray; U1A/LIN28A: 20 mM HEPES pH 7.5, 80 mM KCl, 20 mM NaCl, 10% glycerol, 2 mM DTT, 0.1 ug/uL BSA, 4 C; BG4/CIRBP/DHX36: 10 mM Tris-HCl pH 7.5, 100 mM KCl (or LiCl),; high values mean tight binding
# LIN28A = molecular target: T1, LIN28A
# CIRBP = molecular target: T2, CIRBP
# DHX36 = molecular target: T3, DHX36
Binder,binding signal (LIN28A) [z-score],binding signal (CIRBP) [z-score],binding signal (DHX36) [z-score]
B1,-0.521,-0.342,0.0348
B2,-0.523,-1.17,-0.177
B3,-0.529,-0.135,-0.549
B4,-0.532,-0.501,0.81
B5,-0.536,0.207,-0.471
B6,-0.537,0.529,-0.736
B7,-0.54,1.61,0.946
B8,-0.54,-0.308,-0.814
B9,-0.542,0.0829,-1.2
B10,-0.543,0.355,-0.714
B11,-0.544,-0.0489,-0.151
B12,-0.547,-0.959,0.147
B13,-0.548,-0.672,0.197
B14,-0.551,0.377,0.203
B15,-0.551,-0.519,-0.899
B16,-0.554,-0.988,-0.32
B17,-0.554,-0.952,-1.31
B18,-0.565,0.569,0.0164
B19,-0.565,0.598,0.173
B20,-0.569,-0.0481,-0.393
B21,-0.569,0.15,0.119
B22,-0.569,0.392,-0.864
B23,-0.575,-1.35,-0.26
B24,-0.575,0.535,-0.492
B25,-0.58,1.71,-0.0414
B26,-0.589,-1,-0.643
